Experiment [1] concerns Human myeloid monocytic leukemia cell (MV-4-11). Briefly: Tumor cell proliferation inhibition (cell viability assay). The note with it: MV-4-11 cells, 96 hours.
The target of another experiment is CRBN (Homo sapiens, UniProt Q96SW2). Briefly: CRBN binding affinity by HTRF (CEREBLON BINDING kit). The conditions noted are these: CRBN binding, HTRF; for Inhibition Rate at 0.5 µM (%): compound at 0.5 µM; for Inhibition Rate at 2 µM (%): compound at 2 µM. On the technique in general: In TR-FRET formats the signal depends on donor and acceptor labels being close together.

Protein sequences, listed by entry. Tags and fused reporters are not part of them.
UniProt Q96SW2, whole entry: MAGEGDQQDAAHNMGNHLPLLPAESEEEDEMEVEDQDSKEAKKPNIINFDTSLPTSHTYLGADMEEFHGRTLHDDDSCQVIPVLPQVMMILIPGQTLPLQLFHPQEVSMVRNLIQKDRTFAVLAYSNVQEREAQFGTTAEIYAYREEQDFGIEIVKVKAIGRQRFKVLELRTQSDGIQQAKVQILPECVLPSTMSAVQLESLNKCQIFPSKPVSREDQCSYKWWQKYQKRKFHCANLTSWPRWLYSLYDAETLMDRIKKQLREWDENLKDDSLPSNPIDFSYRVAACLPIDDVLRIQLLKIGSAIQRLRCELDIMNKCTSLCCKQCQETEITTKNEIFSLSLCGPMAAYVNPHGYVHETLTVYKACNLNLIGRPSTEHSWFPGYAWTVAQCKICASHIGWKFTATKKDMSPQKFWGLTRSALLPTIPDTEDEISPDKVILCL
UniProt P48729, whole entry: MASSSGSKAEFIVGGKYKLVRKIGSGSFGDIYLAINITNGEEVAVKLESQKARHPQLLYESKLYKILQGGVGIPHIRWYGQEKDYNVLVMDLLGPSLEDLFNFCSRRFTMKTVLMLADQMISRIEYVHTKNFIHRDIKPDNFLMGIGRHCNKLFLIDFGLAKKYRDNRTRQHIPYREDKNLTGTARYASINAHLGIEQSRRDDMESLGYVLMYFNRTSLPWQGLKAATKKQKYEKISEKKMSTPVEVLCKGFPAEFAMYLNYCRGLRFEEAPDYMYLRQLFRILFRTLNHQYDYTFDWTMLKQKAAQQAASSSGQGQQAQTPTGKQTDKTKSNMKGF
UniProt P15170, whole entry: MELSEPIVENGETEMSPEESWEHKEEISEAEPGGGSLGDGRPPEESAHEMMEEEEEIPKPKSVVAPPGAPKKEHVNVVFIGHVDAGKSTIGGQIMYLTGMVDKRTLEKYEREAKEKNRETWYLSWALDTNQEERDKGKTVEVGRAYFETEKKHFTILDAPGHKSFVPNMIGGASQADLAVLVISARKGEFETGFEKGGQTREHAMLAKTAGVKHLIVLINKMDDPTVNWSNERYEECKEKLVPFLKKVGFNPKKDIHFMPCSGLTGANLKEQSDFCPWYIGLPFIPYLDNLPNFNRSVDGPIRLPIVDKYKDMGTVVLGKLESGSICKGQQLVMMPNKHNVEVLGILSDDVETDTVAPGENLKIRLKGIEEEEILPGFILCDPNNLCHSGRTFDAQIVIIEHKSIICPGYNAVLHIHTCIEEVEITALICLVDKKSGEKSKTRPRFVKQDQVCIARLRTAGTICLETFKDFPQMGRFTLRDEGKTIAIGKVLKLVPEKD
UniProt Q13422, whole entry: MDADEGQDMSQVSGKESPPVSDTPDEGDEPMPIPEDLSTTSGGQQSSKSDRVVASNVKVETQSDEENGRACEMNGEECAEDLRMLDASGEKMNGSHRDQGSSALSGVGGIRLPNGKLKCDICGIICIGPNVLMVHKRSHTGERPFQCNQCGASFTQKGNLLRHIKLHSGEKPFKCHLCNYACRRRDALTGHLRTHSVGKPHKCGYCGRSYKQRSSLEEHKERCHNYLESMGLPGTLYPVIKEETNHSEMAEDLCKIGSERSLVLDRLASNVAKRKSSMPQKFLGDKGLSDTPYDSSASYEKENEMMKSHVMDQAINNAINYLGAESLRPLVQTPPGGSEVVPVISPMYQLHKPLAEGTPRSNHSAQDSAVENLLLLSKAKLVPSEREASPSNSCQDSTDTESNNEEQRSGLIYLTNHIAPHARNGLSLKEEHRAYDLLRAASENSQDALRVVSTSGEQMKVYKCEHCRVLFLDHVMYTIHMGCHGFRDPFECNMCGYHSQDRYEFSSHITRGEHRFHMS
UniProt Q9UKS7, whole entry: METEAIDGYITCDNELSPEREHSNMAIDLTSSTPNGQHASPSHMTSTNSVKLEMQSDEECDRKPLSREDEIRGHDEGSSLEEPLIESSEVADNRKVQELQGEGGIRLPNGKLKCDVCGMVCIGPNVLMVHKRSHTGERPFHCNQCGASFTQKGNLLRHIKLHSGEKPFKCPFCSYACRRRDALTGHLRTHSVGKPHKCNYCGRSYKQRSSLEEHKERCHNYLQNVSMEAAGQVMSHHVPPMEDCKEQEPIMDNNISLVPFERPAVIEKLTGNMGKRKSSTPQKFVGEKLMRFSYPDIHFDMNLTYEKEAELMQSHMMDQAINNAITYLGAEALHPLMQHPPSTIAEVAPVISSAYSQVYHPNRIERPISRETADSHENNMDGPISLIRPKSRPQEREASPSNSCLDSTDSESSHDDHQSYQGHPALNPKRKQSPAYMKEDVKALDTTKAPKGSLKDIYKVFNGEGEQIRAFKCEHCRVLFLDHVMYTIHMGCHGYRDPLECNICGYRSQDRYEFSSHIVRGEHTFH
UniProt Q9UKT9, whole entry: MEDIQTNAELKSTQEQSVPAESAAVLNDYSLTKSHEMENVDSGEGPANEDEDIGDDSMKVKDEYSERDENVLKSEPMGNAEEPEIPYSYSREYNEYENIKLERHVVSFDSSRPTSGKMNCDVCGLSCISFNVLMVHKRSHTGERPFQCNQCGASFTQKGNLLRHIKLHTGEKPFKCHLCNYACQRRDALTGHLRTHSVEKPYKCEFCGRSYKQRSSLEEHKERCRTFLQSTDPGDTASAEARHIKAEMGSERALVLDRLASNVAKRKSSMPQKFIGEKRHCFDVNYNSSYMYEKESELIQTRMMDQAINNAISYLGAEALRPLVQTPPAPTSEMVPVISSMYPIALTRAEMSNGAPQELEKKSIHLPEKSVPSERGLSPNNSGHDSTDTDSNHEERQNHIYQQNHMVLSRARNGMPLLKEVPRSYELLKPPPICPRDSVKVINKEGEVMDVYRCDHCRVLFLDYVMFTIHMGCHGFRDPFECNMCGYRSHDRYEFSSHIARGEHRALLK
UniProt P30291, whole entry: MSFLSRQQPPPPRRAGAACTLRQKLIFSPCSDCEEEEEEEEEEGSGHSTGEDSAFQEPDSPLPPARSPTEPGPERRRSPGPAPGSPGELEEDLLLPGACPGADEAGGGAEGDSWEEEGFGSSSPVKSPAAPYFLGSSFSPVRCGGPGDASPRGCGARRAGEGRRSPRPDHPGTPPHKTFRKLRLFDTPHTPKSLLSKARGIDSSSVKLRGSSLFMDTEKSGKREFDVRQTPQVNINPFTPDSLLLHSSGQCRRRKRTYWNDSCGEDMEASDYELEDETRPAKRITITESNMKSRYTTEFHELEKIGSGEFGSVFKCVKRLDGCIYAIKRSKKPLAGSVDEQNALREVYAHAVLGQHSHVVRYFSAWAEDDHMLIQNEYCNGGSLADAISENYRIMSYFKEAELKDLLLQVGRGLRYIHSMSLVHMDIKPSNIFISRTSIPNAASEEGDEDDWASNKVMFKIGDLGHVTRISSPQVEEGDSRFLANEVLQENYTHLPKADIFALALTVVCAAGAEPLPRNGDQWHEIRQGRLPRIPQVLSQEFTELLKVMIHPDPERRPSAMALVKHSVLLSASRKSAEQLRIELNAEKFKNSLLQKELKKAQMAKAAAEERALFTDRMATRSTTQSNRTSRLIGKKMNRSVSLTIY
UniProt Q16531, whole entry partner: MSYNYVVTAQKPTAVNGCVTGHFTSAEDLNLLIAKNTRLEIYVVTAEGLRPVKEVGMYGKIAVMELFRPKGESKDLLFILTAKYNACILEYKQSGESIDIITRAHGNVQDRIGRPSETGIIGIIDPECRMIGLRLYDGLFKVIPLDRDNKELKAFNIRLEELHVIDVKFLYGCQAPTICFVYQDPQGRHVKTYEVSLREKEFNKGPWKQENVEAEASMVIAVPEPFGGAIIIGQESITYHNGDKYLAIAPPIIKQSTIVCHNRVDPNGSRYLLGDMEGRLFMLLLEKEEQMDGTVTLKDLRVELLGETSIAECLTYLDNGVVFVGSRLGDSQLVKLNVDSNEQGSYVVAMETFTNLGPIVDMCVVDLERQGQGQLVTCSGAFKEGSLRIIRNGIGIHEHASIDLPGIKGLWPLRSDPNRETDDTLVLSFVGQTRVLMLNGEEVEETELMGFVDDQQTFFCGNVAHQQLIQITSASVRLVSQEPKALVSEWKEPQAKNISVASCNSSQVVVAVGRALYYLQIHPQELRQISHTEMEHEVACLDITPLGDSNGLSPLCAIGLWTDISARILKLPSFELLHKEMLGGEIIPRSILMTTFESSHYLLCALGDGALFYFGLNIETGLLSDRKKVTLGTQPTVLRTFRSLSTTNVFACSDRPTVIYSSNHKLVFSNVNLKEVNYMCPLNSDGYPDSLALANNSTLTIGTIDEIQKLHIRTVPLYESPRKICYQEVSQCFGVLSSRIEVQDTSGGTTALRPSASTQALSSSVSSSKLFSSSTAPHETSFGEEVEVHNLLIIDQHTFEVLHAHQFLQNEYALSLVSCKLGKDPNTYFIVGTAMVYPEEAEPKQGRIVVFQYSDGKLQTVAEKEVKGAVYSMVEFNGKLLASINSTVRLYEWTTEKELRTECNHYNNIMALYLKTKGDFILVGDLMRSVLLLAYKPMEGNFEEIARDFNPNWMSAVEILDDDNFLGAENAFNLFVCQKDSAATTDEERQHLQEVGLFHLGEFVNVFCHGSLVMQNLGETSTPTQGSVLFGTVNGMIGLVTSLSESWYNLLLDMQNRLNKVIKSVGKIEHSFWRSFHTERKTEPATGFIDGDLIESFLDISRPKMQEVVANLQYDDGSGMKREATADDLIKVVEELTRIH

For the next experiment, the target named is CK1α (Homo sapiens, UniProt P48729+Q96SW2). Briefly: Western blot assay of substrate protein degradation in hPBMCs. The note with it: 24 hours treatment, compounds at 50 nM and 500 nM (concentration behind the class not stated).
In the next experiment the target is GSPT1 (Homo sapiens, UniProt P15170+Q96SW2). The description is as above. The conditions noted are these: 24 hours treatment, compounds at 50 nM and 500 nM (concentration behind the class not stated).
The target in another experiment is IKZF1 (Homo sapiens, UniProt Q13422+Q96SW2). Described as above. The conditions noted are these: 24 hours treatment, compounds at 50 nM and 500 nM (concentration behind the class not stated).
Another experiment addresses IKZF2 (Homo sapiens, UniProt Q96SW2+Q9UKS7). The description is as above. The conditions noted are these: 24 hours treatment, compounds at 50 nM and 500 nM (concentration behind the class not stated).
The next experiment has as its target IKZF3 (Homo sapiens, UniProt Q96SW2+Q9UKT9). The description is as above. The conditions noted are these: 24 hours treatment, compounds at 50 nM and 500 nM (concentration behind the class not stated).
In a further experiment the target is WEE1 (Homo sapiens, UniProt P30291+Q96SW2). The description is as above. The conditions noted are these: 24 hours treatment, compounds at 50 nM and 500 nM (concentration behind the class not stated).

Consider 4 compounds from EP4834897A1, “COMPOUNDS WITH TWO AZAHETEROCYCLES SUBSTITUTED ISOINDOLINONE SKELETON AND USES THEREOF” (dated 2026).

The structures appear in SMILES notation.

Take `O=C1CCC(N2Cc3c(C(=O)N4CCC(N5CCN(c6noc7cc(F)ccc67)CC5)C(F)(F)C4)cccc3C2=O)C(=O)N1` (stereo not shown): in experiment [1], the “Inhibition Rate at 10 nM (%)” value is recorded as 1a5 (30% ≤ 1a5 ≤ 40%) and the “Inhibition Rate at 500 nM (%)” value is 1a9 (70% ≤ 1a9 < 80%). Also, at CRBN, the “Inhibition Rate at 0.5 µM (%)” value is recorded as “a4 (40% < a4 ≤ 53%)” and the “Inhibition Rate at 2 µM (%)” value is “a8 (80% < a8 ≤100%)”. Moreover, the “substrate protein remaining % (CK1a)” value at CK1α is given as “A (0% ≤ substrate protein remaining % ≤ 80%)”. Further, the “substrate protein remaining % (GSPT1)” value at GSPT1 was “A (0% ≤ substrate protein remaining % ≤ 80%)”. For the same compound, the “substrate protein remaining % (IKZF 1)” value on IKZF1 was “B (80%< substrate protein remaining %≤ 100%)”. Also, on IKZF2, the “substrate protein remaining % (IKZF2)” value is reported as “B (80%< substrate protein remaining %≤ 100%)”. Also, the “substrate protein remaining % (IKZF3)” value at IKZF3 was “B (80%< substrate protein remaining %≤ 100%)”. The “substrate protein remaining % (WEE1)” value at WEE1 was “A (0% ≤ substrate protein remaining % ≤ 80%)”.

`O=C1CCC(N2Cc3cc(C(=O)N4CCC(N5CCN(C(c6ccccc6)c6ccccc6)CC5)CC4)c(F)cc3C2=O)C(=O)N1` (stereo not shown): in experiment [1], the “Inhibition Rate at 10 nM (%)” value is given as 1a7 (50% ≤ 1a7 < 60%) and the “Inhibition Rate at 500 nM (%)” value is reported as 1a10 (80% ≤ 1a10 < 100%). For the same compound, at CRBN, the “Inhibition Rate at 0.5 µM (%)” value is on record as “a4 (40% < a4 ≤ 53%)” and the “Inhibition Rate at 2 µM (%)” value was “a6 (60% < a6 ≤ 70%)”. Further, the “substrate protein remaining % (CK1a)” value at CK1α was “B (80%< substrate protein remaining %≤ 100%)”. Moreover, the “substrate protein remaining % (GSPT1)” value at GSPT1 was “A (0% ≤ substrate protein remaining % ≤ 80%)”. In addition, at IKZF1, the “substrate protein remaining % (IKZF 1)” value is “B (80%< substrate protein remaining %≤ 100%)”. For the same compound, the “substrate protein remaining % (IKZF2)” value at IKZF2 is “B (80%< substrate protein remaining %≤ 100%)”. In addition, the “substrate protein remaining % (IKZF3)” value on IKZF3 is on record as “B (80%< substrate protein remaining %≤ 100%)”. Besides, the “substrate protein remaining % (WEE1)” value at WEE1 is listed as “B (80%< substrate protein remaining %≤ 100%)”.

On to `O=C1CCC(N2Cc3c(C(=O)N4CCC(N5CCC(c6noc7cc(F)ccc67)CC5)C(F)(F)C4)cccc3C2=O)C(=O)N1` (stereo not shown), for which, in experiment [1], the “Inhibition Rate at 10 nM (%)” value is recorded as 1a8 (60% ≤ 1a8 < 70%) and the “Inhibition Rate at 500 nM (%)” value is recorded as 1a10 (80% ≤ 1a10 < 100%). For the same compound, on CRBN, the “Inhibition Rate at 0.5 µM (%)” value was “a6 (60% < a6 ≤ 70%)” and the “Inhibition Rate at 2 µM (%)” value is recorded as “a8 (80% < a8 ≤100%)”. Also, the “substrate protein remaining % (CK1a)” value at CK1α is given as “A (0% ≤ substrate protein remaining % ≤ 80%)”. Further, the “substrate protein remaining % (GSPT1)” value on GSPT1 was “A (0% ≤ substrate protein remaining % ≤ 80%)”. For the same compound, the “substrate protein remaining % (IKZF 1)” value at IKZF1 is on record as “B (80%< substrate protein remaining %≤ 100%)”. The “substrate protein remaining % (IKZF2)” value at IKZF2 is recorded as “A (0% ≤ substrate protein remaining % ≤ 80%)”. For the same compound, on IKZF3, the “substrate protein remaining % (IKZF3)” value is “B (80%< substrate protein remaining %≤ 100%)”. Moreover, on WEE1, the “substrate protein remaining % (WEE1)” value is recorded as “B (80%< substrate protein remaining %≤ 100%)”.

For the compound `O=C1CCC(N2Cc3cc(CN4CCC(N5CC=C(c6cccc(Cl)c6Cl)CC5)C(F)(F)C4)cc(F)c3C2=O)C(=O)N1` (stereo not shown), in experiment [1], the “Inhibition Rate at 10 nM (%)” value is listed as 1a7 (50% ≤ 1a7 < 60%) and the “Inhibition Rate at 500 nM (%)” value is given as 1a7 (50% ≤ 1a7 < 60%). Besides, on CRBN, the “Inhibition Rate at 0.5 µM (%)” value is given as “a4 (40% < a4 ≤ 53%)” and the “Inhibition Rate at 2 µM (%)” value is recorded as “a8 (80% < a8 ≤100%)”. Moreover, the “substrate protein remaining % (CK1a)” value on CK1α is “B (80%< substrate protein remaining %≤ 100%)”. In addition, the “substrate protein remaining % (GSPT1)” value at GSPT1 is on record as “A (0% ≤ substrate protein remaining % ≤ 80%)”. Also, at IKZF1, the “substrate protein remaining % (IKZF 1)” value was “B (80%< substrate protein remaining %≤ 100%)”. In addition, the “substrate protein remaining % (IKZF2)” value at IKZF2 is recorded as “B (80%< substrate protein remaining %≤ 100%)”. For the same compound, the “substrate protein remaining % (IKZF3)” value at IKZF3 is “B (80%< substrate protein remaining %≤ 100%)”. Also, on WEE1, the “substrate protein remaining % (WEE1)” value was “B (80%< substrate protein remaining %≤ 100%)”.
